# Target: ERCC1 (Homo sapiens, UniProt P07992)
# Chains of the proteins cited; added tags and fusions are not shown. Residues count along the entry.
# UniProt P07992, 92-214 limits assumed: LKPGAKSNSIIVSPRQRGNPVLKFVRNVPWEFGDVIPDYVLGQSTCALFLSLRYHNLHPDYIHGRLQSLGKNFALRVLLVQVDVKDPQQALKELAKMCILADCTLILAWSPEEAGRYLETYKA
# Assay: intrinsic tryptophan fluorescence quenching (excitation […] nm)
row,Structure (SMILES),Kd
1,O=C(/C=C/c1ccc([N+](=O)[O-])s1)Nc1ccc([N+](=O)[O-])cc1[N+](=O)[O-],27.4 µM
2,O=c1c([N+](=O)[O-])c(-c2ccc([N+](=O)[O-])cc2)oc2ccc([N+](=O)[O-])cc12,66.8 µM
